Experiments:
H2228 cells = assay: Flow cytometry of cell surface HLA on EML4-ALK cell line H2228; assay type: cell-based, human; settings: H2228, 100 nM
Procedure: If adherent cells, they were seeded one day before treatment.

pERK in A498 cells = assay: pERK in A498 cells; assay type: cell-based, human
Procedure: Cells were seeded in a 60 mm dish or 6 well plates. After the appropriate time point, cells were harvested and lysed and protein was quantified by a Lowry assay (Bio-Rad DC Protein Assay; #5000116). Protein levels were normalized and run on SDS PAGE gels (Bio-Rad). Protein was transferred to a nitrocellulose membrane using semi-dry transfer. Membrane was blocked and incubated with respective antibodies. When needed, secondary antibodies with HRP were incubated for 1 hr. Enhanced chemiluminescent substrate for HRP enzymes was used to image protein levels (Thermo-Fischer; #34095).
Experiments in this Example were performed as described in Section 6.1.2.

Row | Compound | surface HLA levels (H2228 cells) | surface HLA levels (H2228 cells; listed as Crizotinib) | pERK (pERK in A498 cells)
1 | C[C@@H](Oc1cc(-c2cnn(C3CCNCC3)c2)cnc1N)c1c(Cl)ccc(F)c1Cl [crizotinib] | cell surface HLA levels did not change either | no increase in surface HLA was seen | 
2 | trastuzumab: an ERBB2 inhibitor, from Genentech |  |  | not A498 cells

Reference: US20210379046A1, “Methods of Treating Diseases Using Kinase Modulators” (Memorial Sloan Kettering Cancer Center, priority 2018, published 2021)
